Results on 1 substance are retold here after patent publication US20260325542A1, “CANCER TARGETING COMPLEX, AND COMPOSITION COMPRISING SAME FOR PREVENTING OR TREATING CANCER” (EWHA UNIVERSITY - INDUSTRY COLLABORATION FOUNDATION, priority 2023, published 2026).

Series [1] can be described thus: Particle size by DLS before and after binding to albumin. It is filed as physicochemical. The conditions noted are these: BSA 200 μM and ECMal-PROTAC 140 μM in PBS, 1:1, 30 minutes. Here is the method:
A BSA solution (200 μM) diluted with PBS was co-incubated by mixing it with an ECMal-PROTAC aqueous solution (140 μM) of example 1 at a 1:1 volume ratio. The culture was collected after 30 minutes to obtain Alb-ECMal-PROTAC. The particle size of Alb-ECMal-PROTAC and BSA was measured through DLS.

For a further series, the system named is esterase. As to the kind of experiment: Degradation of Alb-ECMal-PROTAC under esterase conditions, release of ARV-771 (RP-HPLC). It counts as biochemical, porcine. The conditions noted are these: role: substrate, esterase 15 units, pH 8.0 (conjugation step). The text has this:
In this example, ARV-771 (99.02%) was obtained from Chemscene (Monmouth Junction, NJ, USA). DMF (N,N-dimethylformamide; 99.8%), EDC-HCl (N-(3-dimethylaminopropyl)-N′-ethylcarbodiimide hydrochloride), DMAP (4-dimethylaminopyridine; 99%), esterase obtained from porcine liver, and TEA (triethylamine; 99.5%) were purchased and used from Sigma-Aldrich (St. Louis, MO, USA). 5-Azidovaleric acid (98%), 4-maleimidobutyric acid (98%), and 2-mercaptoethanol (98%) were commercially obtained and used from Tokyo Chemical Industry (TCI; Toshima, Tokyo, Japan). BCN-PEG2-Mal (Bicyclononyne-polyethylene glycol-maleimide; 95%) was purchased from Axispharm (San Diego, CA, USA), and acetonitrile (ACN) was purchased from Honeywell (Charlotte, NC, USA). DMSO (Dimethyl sulfoxide; 99%), BSA (bovine serum albumin; 98%), and TWEEN 20 were purchased from Biosesang (Ansan, Gyeonggi, Republic of Korea). Cy5.5-NHS(Cyanine 5.5-N-hydroxysuccinimide ester) and Cy5.5-COOH (cyanine 5.5-carboxylic acid) were purchased from Lumiprobe (Hunt Valley, MD, USA). […]
A BSA solution (200 μM) diluted with PBS was co-incubated by mixing it with an ECMal-PROTAC aqueous solution (140 μM) of example 1 at a 1:1 volume ratio. […] The mixture was collected at reaction times of 0 hours, 3 hours, 6 hours, and 9 hours, and analyzed by RP-HPLC. […]

Alb-ECMal-PROTAC came in with an average particle size in series [1] of 6.99±1.38 nm. Also, the “ARV-771 released within 48 hours” value with esterase stood at 63.2%.
